# GIV-Gai inh: inhibitors of GIV peptide binding to Galpha-i3, primary screen, biochemical, fluorescence polarization, FITC-GIV GBA peptide, rat Galphai3; 90 min; stronger effect = lower value; scaled: aluminum fluoride 0%, vehicle 100%; percent of control (FP), % (test concentration not listed); 0.42% of 210,000 active; AID 1224905, 2016;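 active = replicate mean at 85% of control or lower, very high polarization wells dropped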;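 also: wells of about 15 µL received 100 nL stock; the first replicate is given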
# HCMV UL50-53 inh: disrupts HCMV UL50-UL53 complex binding | hit rate 0.15% among 190,000 | AID 1918969 | inhibition, % (test concentration not listed) | HTRF UL50-UL53 interaction, normalized percent inhibition; in the data active = inhibition above about 27%, passing the limit was not always enough
# GIV-Gai FP conf: confirmation of inhibitors of GIV binding to rat Galpha-i3 | shares compounds with GIV-Gai inh | fluorescence polarization, mP at 100 µM | FITC-GIV peptide binding to Galphai3, fluorescence polarization; hits give low values | hit rate 38% among 580;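 active = inhibition score of 15 or more, meaning 100 minus mean polarization as percent of control over three replicates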;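 note: lower mP means peptide displaced from Galphai3 so more inhibition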
# GIV Gai AS conf: GIV-Galpha-i3 inhibition, AlphaScreen confirmation; shares compounds with GIV-Gai inh; AlphaScreen Galphai3-GIV binding, purified proteins, 90 min; hits give low values; AlphaScreen counts at 100 µM; hit rate 39% among 580; AID 1259351;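 active = inhibition score at or above a set limit, where the score is 100 minus the three-replicate mean percent of control signal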
# * = called active by the depositor; x = no result; ! = repeats disagree. The list is not random: actives were taken first. Their share in the collection is about 0.46%.
SMILES,GIV-Gai inh,HCMV UL50-53 inh,GIV-Gai FP conf,GIV Gai AS conf
Cn1c(C(=O)NCc2ccccc2F)cc2cc(S(=O)(=O)N3CCCCC3)ccc21,89,x,79,33586
CCOc1ccccc1CNC(=O)c1cc2cc(S(=O)(=O)N3CCCCC3)ccc2n1C,98,x,x,x
CCC(C)NC(=O)CC1CCN(C(=O)c2cc3ccccc3[nH]2)CC1 (configuration not stated),101,x,x,x
O=C(NCCn1ccc2ccccc21)c1ccc(F)cc1,60*,x,64,37703
Cc1ccc(C(=O)NCCn2ccc3ccccc32)cc1,94,x,x,x
Cc1nc(-c2ccc(C)c(S(=O)(=O)NCC(=O)Nc3cccc(F)c3)c2)no1,101,x,x,x
CC(=O)N1CC(C)=C(C#N)C1O (configuration not stated),73*,2,48*,19185*
CC(=O)N1CN(C(C)=O)C(O)C1O (configuration not stated),103,4,x,x
Cc1ccc(NCCOc2ccccc2)c(C)c1,97,11,x,x
CCOC(=O)c1nc2c3ccccc3ncn2n1,x,-9,x,x
Cc1ccc(C(CC(=O)N2CCC(C)CC2)N2Cc3ccccc3C2=O)cc1 (configuration not stated),100,-30,x,x
CC1=CC(=C2N=C(c3ccccc3)OC2=O)C=C(C)O1,73*,-16,72,40445
O=C1OC(c2ccccc2)=N/C1=C1/OC(=O)c2ccccc21,x,-20,x,x
O=C(O)c1cccc(S(=O)(=O)NCc2ccc3c(c2)OCO3)c1,x,-12,x,x
O=C1C2C3c4ccccc4C(C=Nc4cccc(Br)c4)(c4ccccc43)C2C(=O)N1c1ccccc1 (configuration not stated),107,x,x,x
O=C1/C(=C/c2ccncc2)CC/C1=C\c1ccncc1,x,-34,x,x
CC1C/C(=C/c2ccncc2)C(=O)/C(=C/c2ccncc2)C1 (configuration not stated),68*,x,44*,8734*
COc1cccc(C(=O)Nc2cccc(-c3cn4cccnc4n3)c2)c1OC,102,-29,x,x
CCOC(=O)CC(=O)CSc1nc2c(c(-c3cccs3)c1C#N)CCC2,96,x,68,43008
CCOC(=O)CC(=O)CSc1nc(-c2cccs2)cc(-c2cccs2)c1C#N,115,x,x,x
COc1ccccc1CNC(=O)Cn1ncc2c3ccccc3n(Cc3ccc(F)cc3)c2c1=O,98,1,x,x
Oc1ccccc1C1=Nc2ccccc2N=C(c2ccc(Cl)cc2)C1,72*!,-1,68,44887
Oc1ccc(Cl)cc1C1=Nc2ccccc2N=C(c2ccc(Cl)cc2)C1,99,x,x,x
O=C1COc2ccc(S(=O)(=O)NC3CCCCC3)cc2N1Cc1noc(C2CC2)n1,101,x,x,x
Cc1ccc(Nc2nncc(=O)[nH]2)cc1Cl,100,-20,x,x
COc1ccc(NC(=O)c2ccc3c(=O)n(-c4ccc(OC)c(OC)c4)c(=S)[nH]c3c2)c(OC)c1,113,x,x,x
COc1ccc(OC)c(C2=NS(=O)(=O)N(C)C(C(=O)Nc3ccc(F)cc3F)=C2)c1,95,-21,80,32539
Cc1ccc(C2=NS(=O)(=O)N(C)C(C(=O)Nc3ccc(F)cc3F)=C2)cc1,106,-34,x,x
CN(C)CCNC(=O)c1ccc(-n2c(-c3ccccc3)nc3cccnc32)cc1,83*,-15,60,33901
O=C(NCCn1c(-c2ccccc2)nc2cccnc21)c1ccc(Cl)cc1,110,-17,x,x
COc1ccccc1OCCOc1c(Cl)cc(C=C2C(=O)N(C)C(=O)N(C)C2=O)cc1OC,105,-11,x,x
CN(C)C(CNC(=O)Cn1cnc2ccccc2c1=O)c1ccccc1 (configuration not stated),x,6,x,x
CCOC(=O)COc1ccccc1C1Nc2ccccc2-c2nnc(SC)nc2O1 (configuration not stated),105,-26,x,x
CCCSc1nnc2c(n1)OC(c1ccco1)Nc1ccccc1-2 (configuration not stated),78*,-36,60,5688*
CCCSc1nnc2c(n1)OC(c1ccccc1)Nc1ccccc1-2 (configuration not stated),109,-12,x,x
CCCSc1nnc2c(n1)OC(c1ccccc1OCC(=O)OCC)Nc1ccccc1-2 (configuration not stated),21*,-16,59,34096*
CCSc1nnc2c(n1)OC(c1cc(Br)ccc1OC)Nc1ccccc1-2 (configuration not stated),106,-4,x,x
CSc1nnc2c(n1)OC(/C=C/c1ccccc1[N+](=O)[O-])Nc1ccccc1-2 (configuration not stated),105,3,x,x
CCCCSc1nnc2c(n1)OC(/C=C/c1ccccc1[N+](=O)[O-])Nc1ccccc1-2 (configuration not stated),80*,-31,60,33401*
CCSc1nnc2c(n1)OC(c1ccc(Br)cc1)Nc1ccccc1-2 (configuration not stated),24*,-10,30*,29425

# Continued; the last two above are carried over.
SMILES,GIV-Gai inh,HCMV UL50-53 inh,GIV-Gai FP conf,GIV Gai AS conf
CCCCSc1nnc2c(n1)OC(/C=C/c1ccccc1[N+](=O)[O-])Nc1ccccc1-2 (configuration not stated),80*,-31,60,33401*
CCSc1nnc2c(n1)OC(c1ccc(Br)cc1)Nc1ccccc1-2 (configuration not stated),24*,-10,30*,29425
CCOC(=O)c1cccc(-c2ccc(/C=C3\C(=O)N(c4cccc(C(=O)O)c4)N=C3C)o2)c1,93,-27,x,x
COC(=O)c1ccc(N2N=C(C)/C(=C/c3ccc(-c4cccc(C(=O)O)c4)o3)C2=O)cc1,86,-20,56,18724*
CN(c1ccccc1)S(=O)(=O)c1cc2c3c(c1)CCC(=O)N3CCC2,99,0,x,x
CCOC(=O)N1CC=C2C(C#N)=C(N)C(C#N)(C#N)C(c3cccs3)C2C1 (configuration not stated),107,x,x,x
CCN1C=CC2=C(C#N)C(N)C(C#N)(C#N)C(c3cccs3)C2C1 (configuration not stated),65*,-51,64,28433
CCOC(=O)C1=C(C)N=c2s/c(=C\c3cc([N+](=O)[O-])ccc3N3CCOCC3)c(=O)n2C1c1cccc(OC)c1 (configuration not stated),90,-21,63,56560
CCOC(=O)C1=C(C)N=c2s/c(=C\c3cc([N+](=O)[O-])ccc3N3CCOCC3)c(=O)n2C1c1ccccc1 (configuration not stated),97,-3,x,x
COc1cc(=O)n(-c2ccc(F)cc2)nc1C(=O)Nc1ccc(Br)cc1F,103,-8,x,x
O=C(NCCC(=O)N1CCCCCC1)c1ccccc1Cl,x,-21,x,x
COc1ccccc1OCc1ccoc1C(=O)O,82*,-5,69,18278*
COc1ccc(C(=O)NCc2ccoc2C(=O)O)cc1,x,-13,x,x
Cc1cc2nc3c(=O)[nH]c(=O)[nH]c3nc2cc1N,64*,x,46*,30002*
Cc1cc2nc3[nH]c(=O)[nH]c(=O)c3nc2cc1C,x,-112,x,x
O=c1[nH]c(=O)c2nc3ccc(Cl)cc3nc2[nH]1,103,x,x,x
CN(C)c1ccc2nc3c(=O)[nH]c(=O)[nH]c3nc2c1,77*,x,33*,14401*
O=C(Cn1cnc2c(sc3ncccc32)c1=O)NC1CCCC1,105,x,x,x
Cc1ccc(NC(=O)c2nnc(CSCC(=O)NCc3ccccn3)s2)cc1,101,-26,x,x
Nc1ccc2nsnc2c1,46*,96*,5.4*,3926*
Nc1nnc(-c2ccc3nsnc3c2)o1,106,2,x,x

# A few values from above.
# `COc1ccccc1OCc1ccoc1C(=O)O` in GIV-Gai FP conf has 69
# `O=C(NCCC(=O)N1CCCCCC1)c1ccccc1Cl` in HCMV UL50-53 inh has -21
# `Cc1cc2nc3c(=O)[nH]c(=O)[nH]c3nc2cc1N` in GIV Gai AS conf has 30002*
# `Nc1nnc(-c2ccc3nsnc3c2)o1` in HCMV UL50-53 inh has 2

# Record cards, as listed above. Values in the order: GIV-Gai inh | HCMV UL50-53 inh | GIV-Gai FP conf | GIV Gai AS conf
# `O=c1[nH]c(=O)c2nc3ccc(Cl)cc3nc2[nH]1` is listed as 103 | x | x | x
# `O=C(Cn1cnc2c(sc3ncccc32)c1=O)NC1CCCC1` is listed as 105 | x | x | x
